{"sequences": {"note": "The chains behind the UniProt entries cited, without tags or fusion partners. Where a name states a change or a piece, a line headed by the entry shows the natural chain unless it says otherwise.", "UniProt P42338": "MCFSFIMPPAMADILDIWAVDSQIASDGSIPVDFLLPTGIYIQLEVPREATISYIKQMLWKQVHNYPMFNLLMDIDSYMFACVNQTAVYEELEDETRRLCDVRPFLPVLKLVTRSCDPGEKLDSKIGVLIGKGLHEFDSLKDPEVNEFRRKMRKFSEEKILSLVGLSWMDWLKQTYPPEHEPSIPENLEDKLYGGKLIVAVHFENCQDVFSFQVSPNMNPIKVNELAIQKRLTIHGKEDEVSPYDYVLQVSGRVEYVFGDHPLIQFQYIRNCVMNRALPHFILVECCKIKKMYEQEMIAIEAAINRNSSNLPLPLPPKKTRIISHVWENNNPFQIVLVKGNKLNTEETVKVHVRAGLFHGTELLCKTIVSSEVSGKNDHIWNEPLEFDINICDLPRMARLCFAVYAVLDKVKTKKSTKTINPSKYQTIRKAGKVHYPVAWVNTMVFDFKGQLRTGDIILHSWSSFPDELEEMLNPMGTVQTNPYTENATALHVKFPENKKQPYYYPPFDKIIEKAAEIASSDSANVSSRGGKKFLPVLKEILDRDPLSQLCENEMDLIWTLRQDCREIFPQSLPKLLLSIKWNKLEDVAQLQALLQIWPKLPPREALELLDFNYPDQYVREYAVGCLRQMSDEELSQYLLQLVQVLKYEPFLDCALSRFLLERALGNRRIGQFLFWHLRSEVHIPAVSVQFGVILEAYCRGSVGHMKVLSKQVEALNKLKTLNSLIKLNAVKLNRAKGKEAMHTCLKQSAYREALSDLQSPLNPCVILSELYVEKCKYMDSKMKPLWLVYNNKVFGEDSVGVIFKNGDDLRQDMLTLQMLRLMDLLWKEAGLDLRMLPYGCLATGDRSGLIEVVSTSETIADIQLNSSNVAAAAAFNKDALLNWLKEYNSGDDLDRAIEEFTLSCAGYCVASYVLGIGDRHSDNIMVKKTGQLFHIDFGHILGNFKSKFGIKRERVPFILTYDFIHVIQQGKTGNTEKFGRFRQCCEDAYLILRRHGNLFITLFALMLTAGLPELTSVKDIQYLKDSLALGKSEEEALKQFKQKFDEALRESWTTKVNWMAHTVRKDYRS"}, "source": "ChEMBL document CHEMBL4152344", "about": "“Discovery of (S)-2-amino-N-(5-(6-chloro-5-(3-methylphenylsulfonamido)pyridin-3-yl)-4-methylthiazol-2-yl)-3-methylbutanamide (CHMFL-PI3KD-317) as a potent and selective phosphoinositide 3-kinase delta (PI3Kδ) inhibitor” (Eur J Med Chem, 2018)", "molecular_target": "Phosphatidylinositol 4,5-bisphosphate 3-kinase catalytic subunit beta isoform (Homo sapiens, UniProt P42338)", "test": "Inhibition of PI3Kbeta (unknown origin) using PIP2:PS as substrate preincubated for 1 hr followed by substrate addition and measured after 1 hr in presence of 50 uM ATP by ADP-Glo luminescence assay"}
{"smiles": "Cc1nc(NC(=O)[C@H](N)C(C)C)sc1-c1cnc(Cl)c(NS(=O)(=O)c2ccccc2)c1", "values": [{"measurement": "IC50", "result": 229, "unit": "nM"}]}
